Data on one molecule can be found in paper PMC6221991 (Structure (London, England : 1993), 2018).

This experiment deals with T1, human PPARα (hPPARα) (Homo sapiens, UniProt Q07869).
T1 sequence (Q07869 239-466 limits assumed): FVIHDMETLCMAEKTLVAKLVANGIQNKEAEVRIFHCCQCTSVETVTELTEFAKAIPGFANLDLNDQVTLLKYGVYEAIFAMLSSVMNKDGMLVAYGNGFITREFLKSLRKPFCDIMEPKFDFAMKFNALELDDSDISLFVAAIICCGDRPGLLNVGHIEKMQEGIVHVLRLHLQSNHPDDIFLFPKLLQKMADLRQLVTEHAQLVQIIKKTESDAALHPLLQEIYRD
Briefly: PPARα GAL-4 transactivation assay in HEK293T cells. The experiment is classed as cell-based.

Take `CN(CCOc1ccc(CC2SC(=O)NC2=O)cc1)c1ccccn1` (centres unmarked) [Rosiglitazone]: the “EC50 PPARα GAL-4” value is listed as “No activity”. Also, for the setting “Figure S1A”, the “transcriptional agonism, hPPARα-Gal4 transactivation” value is on record as “no transcriptional agonism”.
